Values quoted from earlier work, collected in patent publication US20080081827A1, “Use of a Pyrazole-Derived Compound that is an Antagonist for Cannabinoid CB1 Receptors, for Treating or Preventing Chronic Bronchitis or Chronic Obstructive Bronchopneumopathy” (SANOFI AVENTIS, priority 2004, published 2008).

System: cannabinoid CB1 receptors
Settings: cited from earlier work

Question: Which “effect on bronchoconstriction and cough caused by capsaicin” value (administration of capsaicin) does the source give for Cc1c(C(=O)NN2CCCCC2)nn(-c2ccc(Cl)cc2Cl)c1-c1ccc(Cl)cc1 [rimonabant, N-piperidino-5-(4-chlorophenyl)-1-(2,4-dichlorophenyl)-4-methylpyrazole-3-carboxamide] here?
Answer: significantly increases the bronchoconstriction and the cough

Question: And the “bronchomotor effects per se” value (blocking CB1 receptors alone)?
Answer: no bronchomotor effects per se
